Here are results for one compound from PubChem BioAssay AID652235 (Sanford-Burnham Center for Chemical Genomics, 2013).

This experiment deals with Matrix metalloproteinase-14 (Homo sapiens) (UniProt P50281). The experiment can be described thus: MT1-MMP activation inhibitors, hit retest, confirmation, single concentration, fluorescence, HT1080 RFP-PRO-GFP cells (AID 652235). The settings on record: GFP and RFP fluorescence ratio, overnight, at 20 µM, stronger effect = higher value.

SMILES strings stand for the structures. The list shows a part of the results, in another mix than the full data. Activity calls are given as the source filed them.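 Rule for the calls: active = inhibition of at least 50% in the primary cell screen; inactive = the rest.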

Regarding `Cc1ccc(NCCc2c([N+](=O)[O-])cc([N+](=O)[O-])cc2[N+](=O)[O-])cc1`, the inhibition (in general, the percentage by which the read-out fell short of the control) was inactive: 6.13%.
